Consider one compound from ChEMBL document CHEMBL1138063, “Imidazole-dioxolane compounds as isozyme-selective heme oxygenase inhibitors” (J Med Chem, 2006).

The chains behind the UniProt entries cited, without tags or fusion partners. Where a name states a change or a piece, a line headed by the entry shows the natural chain unless it says otherwise.
UniProt P05182: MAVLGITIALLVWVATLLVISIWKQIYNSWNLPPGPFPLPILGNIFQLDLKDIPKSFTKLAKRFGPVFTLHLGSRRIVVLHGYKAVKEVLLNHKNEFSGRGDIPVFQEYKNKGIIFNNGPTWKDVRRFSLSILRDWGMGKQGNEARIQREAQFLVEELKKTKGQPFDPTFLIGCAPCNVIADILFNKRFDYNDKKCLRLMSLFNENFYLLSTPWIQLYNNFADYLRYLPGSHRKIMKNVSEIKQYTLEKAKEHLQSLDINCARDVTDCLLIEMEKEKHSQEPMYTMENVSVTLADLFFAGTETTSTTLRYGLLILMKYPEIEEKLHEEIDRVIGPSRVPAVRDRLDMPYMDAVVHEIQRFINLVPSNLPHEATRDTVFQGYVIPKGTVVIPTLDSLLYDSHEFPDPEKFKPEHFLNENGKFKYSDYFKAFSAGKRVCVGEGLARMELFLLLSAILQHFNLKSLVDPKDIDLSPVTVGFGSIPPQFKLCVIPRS

pIC50: −log10 of the molar value.

The target in the assay is Cytochrome P450 2E1 (Rattus norvegicus, UniProt P05182). Kind of assay: Inhibition of rat liver CYP2E1. It counts as ADME, tissue-based. The gist of the method: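 Rat liver microsomal CYP2E1 activity was read as p-nitrophenol hydroxylation, by spectrophotometric measurement of 4-nitrocatechol. Activity at several inhibitor concentrations (HCl salts) was expressed as percent of control. IC50 came from a nonlinear sigmoidal dose-response fit of each of two or three replicate curves.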

Regarding `Clc1ccc(CCC2(Cn3ccnc3)SCCS2)cc1`, the pIC50 (in general, the IC50 on a negative log10 scale, so that one unit is a factor of ten) was 4.85.
